Bioassay records as filed in PubChem BioAssay.
Sampled rows, rich in hits. Any-hit rate of the full collection: about 1.5%.
RAD54 branch – RAD54 (human) branch migration inhibition; RAD54 Holliday junction branch migration, FAM/BHQ fluorescence; inhibition, % at 10.4 µM; 0.14% of 360,000 active; AID 602329;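 active = mean normalized replicate activity at least 40 and at least half of replicates scoring 40 or more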;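 also: 0% = median of neutral control wells and 100% = median of positive control wells; inhibitors cause a drop in the FAM fluorescence signal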
RAD52 inh – RAD52 (human) annealing inhibition; P43351; recombinant RAD52 DNA annealing, FRET fluorescence; inhibition, % at 18.7 µM; 0.46% of 360,000 active; AID 651710;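 active = every replicate showing at least 50% inhibition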
Yeast UUG start – modulators of start codon recognition fidelity in yeast; AID 602363; activity score, % at 18.7 µM; S. cerevisiae UUG-firefly luciferase reporter, luminescence/redox ratio; actives 0.13% (n = 350,000);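 active = replicate mean at a twofold rise or more, about +100% in these data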;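 note: firefly luciferase made from a UUG start codon reports start codon fidelity; reporter light over untreated wells divided by growth signal over untreated wells; some hits fall short of that in this replicate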
Casp6 inh – blocks human caspase-6 cleavage activity. 0.53% of 350,000 active. inhibition, % at 12.5 µM. AID 686996. purified caspase-6, Z-VEID-R110 cleavage fluorescence;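 active = mean inhibition across replicates at least about 35%, with every replicate also reaching that limit, limit read from the data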;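 also: 0% = median of neutral control wells and 100% = no fluorescence left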
PglD inh – PglD (C. jejuni) enzyme inhibition; purified PglD enzyme, DTNB colorimetric CoA detection; inhibition, % at 12.5 µM; 0.098% of 360,000 active; AID 602405; in the data active = inhibition above about 16%, passing the limit was not always enough
GSIS activator – GLuc luminescence reporter in INS-1E cells, primary screen for activators of glucose-dependent secretion of insulin; INS-1E GLuc reporter insulin secretion, 2-3 h; AID 743287; activation, % at 16.6 µM; 0.61% of 370,000 active;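 active = lowest replicate activation of at least 40%, so every replicate reaches that level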;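 also: 0% = median of neutral control wells and 100% = median of IBMX positive control wells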
Active calls of the source: *; i = inactive; nt = no result given.

SMILES	RAD54 branch	RAD52 inh	Yeast UUG start	Casp6 inh	PglD inh	GSIS activator
CC1CCc2nc(N)c(C#N)c(-c3ccncc3)c2C1 (configuration not stated)	2.1	nt	-16.2	nt	0.9	77.7*
C[C@@H]1NC(=O)c2cc([N+](=O)[O-])cc(I)c2OCC[C@@H](C(N)=O)NC(=O)[C@H](CCCCN)NC1=O	-11.6	nt	-2.6	nt	-8.8	nt
C=C(C)C(=O)Nc1cccc(C2=NOC3(C2)C[C@H](C(N)=O)N(C(=O)/C=C/C)C3)c1 (some centres not stated)	8.3	2.1	-4.7	52.6*	3.9	nt
C=C(C)C(=O)Nc1cccc(C2=NOC3(C2)C[C@@H](C(N)=O)N(C(=O)C(=C)C)C3)c1 (some centres not stated)	10.2	-49.4	-14.5	37.9*	-1.4	9.7
C=C(C)C(=O)Nc1cccc(C2=NOC3(C2)C[C@@H](C(N)=O)N(C(=O)/C=C/CC)C3)c1 (some centres not stated)	-3.3	-11.7	-13.0	44.1*	5.3	1.5
C=C(C)C(=O)Nc1cccc(C2=NOC3(C2)C[C@H](C(N)=O)N(C(=O)COc2ccc(Cl)cc2)C3)c1 (some centres not stated)	-0.6	-3.7	5.8	51.5*	1.8	nt
O=C1CC(c2ccccc2)CN1Cc1ccccc1 (configuration not stated)	-4.5	nt	14.1	nt	-1.4	1.3
COc1cc(C(=O)OCCCN2CCOCC2)ccc1O	12.1	-1.1	-12.9	-2.2	0.8	4.9
O=C(CN1C(=O)NC2(CCCC2)C1=O)Nc1cc(S(=O)(=O)N2CCOCC2)ccc1OCC(F)(F)F	6.2	-8.7	-5.7	1.5	0.3	-22.0
COc1ccc(OC)c(S(=O)(=O)N2c3ccccc3CC2C)c1 (configuration not stated)	8.3	-7.9	-0.4	nt	-1.8	-8.9
CCN1[C@@H]2Cn3c(ccc(C4=CCCCC4)c3=O)[C@H]1[C@@H](C(=O)N1CCOCC1)[C@@H]2CO	-0.7	-11.4	nt	0.7	0.7	1.1
COc1cc(/C=C(\C#N)C(=O)c2ccc(O)c(O)c2)cc(I)c1O	-167.5	i	9.8	62.7*	-4.5	nt
CC1CCC(C(C)C)C(OCC(O)CNC(C)c2ccccc2)C1 (configuration not stated)	nt	22.1	nt	0.8	nt	199.4*
CC=Cc1ccc2n(c1=O)C[C@@H]1[C@@H](CO)[C@H](C(=O)N(C)C)N(CC3CCCC3)[C@H]21 (mixture of isomers)	nt	-28.2	nt	-0.2	nt	9.5
C[C@H](CO)N1C[C@H](C)[C@H](CN(C)Cc2ccc(-c3ccccc3)cc2)Oc2ccc(NC(=O)CCCN(C)C)cc2CC1=O	2.0	52.8*	-1.7	4.1	-0.5	-4.8
C[C@H](CO)N1C[C@H](C)[C@@H](CN(C)Cc2ccc(Cl)c(Cl)c2)Oc2ccc(NC(=O)CCCN(C)C)cc2CC1=O	19.5	59.5*	-5.8	-69.6	9.5	5.7
C[C@@H]1CN([C@@H](C)CO)C(=O)Cc2cc(NS(=O)(=O)c3cccs3)ccc2O[C@H]1CN(C)Cc1ccc(Cl)c(Cl)c1	-2.0	50.8*	4.6	-2.4	-0.3	-21.1
C[C@H]1CN([C@@H](C)CO)C(=O)Cc2cc(NC(=O)CCCN(C)C)ccc2O[C@H]1CN(C)Cc1ccc(-c2ccccc2)cc1	nt	48.6	nt	nt	nt	nt
C[C@@H]1CN([C@H](C)CO)C(=O)Cc2cc(NC(=O)CCCN(C)C)ccc2O[C@H]1CN(C)Cc1ccc(-c2ccccc2)cc1	11.8	73.4*	-2.1	4.4	-0.2	72.4*
O=C(C[C@H]1C[C@H]2c3cc(NC(=O)Nc4ccc(C(F)(F)F)cc4)ccc3O[C@H]2[C@@H](CO)O1)NCC1CC1	-7.3	-7.5	-19.9	2.3	1.9	3.1
N#Cc1cccc(-c2ccc3c(c2)[C@@H]2[C@@H](CCN2C(=O)c2ccc4c(c2)OCO4)[C@H](CO)N3)c1	1.2	-12.8	-8.6	1.6	2.1	8.9
C[C@@H]1CN([C@@H](C)CO)C(=O)Cc2cc(NC(=O)CCCCCC(=O)Nc3ccccc3N)ccc2O[C@H]1CN(C)C	-14.2	12.5	50.7	-1.1	21.1*	10.1
Cc1ccc(-c2cnc3cccnn23)cc1F	3.0	-0.8	-15.0	0.9	1.5	45.7*
O=C(C[C@@H]1CC[C@H]2[C@@H](COC[C@H](O)CN2C(=O)Nc2cccc(F)c2)O1)NCc1ccccc1F	-2.9	9.0	27.8	1.8	18.6*	-24.0
CS(=O)(=O)N1C[C@H](O)COC[C@@H]2O[C@H](CC(=O)NCc3ccc(-c4ccccc4)cc3)CC[C@H]21	0.2	57.5*	nt	0.7	1.1	-16.8
(further entries)
SMILES	RAD54 branch	RAD52 inh	Yeast UUG start	Casp6 inh	PglD inh	GSIS activator
O=C(C[C@@H]1CC[C@@H]2[C@H](COC[C@H](O)CN2S(=O)(=O)c2ccccc2)O1)NCc1ccc(-c2ccccc2)cc1	-0.7	18.3	nt	-4.8	-1.4	-6.1
O=C(C[C@H]1CC[C@H]2[C@@H](COC[C@H](O)CN2S(=O)(=O)c2ccccc2)O1)NCc1ccc(-c2ccccc2)cc1	2.5	91.9*	nt	-11.0	-0.7	-2.3
CS(=O)(=O)N1C[C@H](O)COC[C@H]2O[C@@H](CC(=O)NCc3ccc(-c4ccccc4)cc3)CC[C@@H]21	19.6	46.9	nt	-3.0	1.3	6.3
O=C(C[C@@H]1CC[C@@H]2[C@H](COC[C@@H](O)CN2S(=O)(=O)c2ccccc2)O1)NCc1ccc(-c2ccccc2)cc1	-5.5	89.2*	nt	-6.7	0.4	-1.7
O=C(c1ccc2ncsc2c1)N1CCN(c2ccccc2Cl)CC1	-1.7	-8.1	-18.1	6.6	-1.6	-3.0
CC(=NNC(N)=S)c1ccc2cc3c(cc2c1)OCO3	-0.3	-18.8	-14.9	nt	-0.7	17.6
COc1cc2ccc(C(C)=NNC(N)=S)cc2cc1OC	17.5	-13.0	-27.3	0.6	4.2	67.1*
C#CCN(C[C@@H]1[C@@H](OC(=O)NCC2CCCCC2)[C@@H](OC(=O)NCC2CCCCC2)CN(C(=O)OC(C)C)N1C(=O)OC(C)C)S(=O)(=O)c1ccc(C)cc1	4.3	-12.6	-5.1	0.4	-5.6	2.3
O=C1S/C(=C\C=C\c2ccco2)C(=O)N1c1ccc(O)cc1	nt	-13.8	nt	43.1*	nt	10.5
O=C(O)CC(C(=O)O)N1C(=O)/C(=C/C=C/c2ccco2)SC1=S (configuration not stated)	12.6	-133.8	-9.5	80.6*	1.6	17.1
O=C1S/C(=C\C=C\c2ccco2)C(=O)N1c1ccccc1	nt	nt	nt	nt	nt	-5.4
O=C(O)C(Cc1ccccc1)N1C(=O)/C(=C/C=C/c2ccco2)SC1=S (configuration not stated)	-12.5	-282.6	-14.3	91.2*	0.7	12.5
COc1ccc(/C=C2\SC(=S)N(C(Cc3ccccc3)C(=O)O)C2=O)cc1 (configuration not stated)	nt	-9.2	nt	27.1	nt	7.2
O=C(NN1C(=O)/C(=C/C=C/c2ccco2)SC1=S)c1ccccc1O	-17.0	-213.6	9.4	92.1*	0.6	11.7

Molecules listed so far with an aryl methoxy group (five):
SMILES	RAD54 branch	RAD52 inh	Yeast UUG start	Casp6 inh	PglD inh	GSIS activator
COc1cc(C(=O)OCCCN2CCOCC2)ccc1O	12.1	-1.1	-12.9	-2.2	0.8	4.9
COc1ccc(OC)c(S(=O)(=O)N2c3ccccc3CC2C)c1 (configuration not stated)	8.3	-7.9	-0.4	nt	-1.8	-8.9
COc1cc(/C=C(\C#N)C(=O)c2ccc(O)c(O)c2)cc(I)c1O	-167.5	i	9.8	62.7*	-4.5	nt
COc1cc2ccc(C(C)=NNC(N)=S)cc2cc1OC	17.5	-13.0	-27.3	0.6	4.2	67.1*
COc1ccc(/C=C2\SC(=S)N(C(Cc3ccccc3)C(=O)O)C2=O)cc1 (configuration not stated)	nt	-9.2	nt	27.1	nt	7.2
